Earlier results in PMC11446596 (Critical Care Explorations, 2024).

Conditions: critically ill children; 20 kg, eGFR 141 mL/min/1.73 m^2; cited from earlier work

## CN[C@H](CC(C)C)C(=O)N[C@H]1C(=O)N[C@@H](CC(N)=O)C(=O)N[C@H]2C(=O)N[C@H]3C(=O)N[C@H](C(=O)N[C@H](C(=O)O)c4cc(O)cc(O)c4-c4cc3ccc4O)[C@H](O)c3ccc(c(Cl)c3)Oc3cc2cc(c3O[C@@H]2O[C@H](CO)[C@@H](O)[C@H](O)[C@H]2O[C@H]2C[C@](C)(N)[C@H](O)[C@H](C)O2)Oc2ccc(cc2Cl)[C@H]1O [vancomycin]
  Clearance reported by Downes et al: 2.64 L/h
